The chains behind the UniProt entries cited, without tags or fusion partners. Where a name states a change or a piece, a line headed by the entry shows the natural chain unless it says otherwise.
UniProt Q15596: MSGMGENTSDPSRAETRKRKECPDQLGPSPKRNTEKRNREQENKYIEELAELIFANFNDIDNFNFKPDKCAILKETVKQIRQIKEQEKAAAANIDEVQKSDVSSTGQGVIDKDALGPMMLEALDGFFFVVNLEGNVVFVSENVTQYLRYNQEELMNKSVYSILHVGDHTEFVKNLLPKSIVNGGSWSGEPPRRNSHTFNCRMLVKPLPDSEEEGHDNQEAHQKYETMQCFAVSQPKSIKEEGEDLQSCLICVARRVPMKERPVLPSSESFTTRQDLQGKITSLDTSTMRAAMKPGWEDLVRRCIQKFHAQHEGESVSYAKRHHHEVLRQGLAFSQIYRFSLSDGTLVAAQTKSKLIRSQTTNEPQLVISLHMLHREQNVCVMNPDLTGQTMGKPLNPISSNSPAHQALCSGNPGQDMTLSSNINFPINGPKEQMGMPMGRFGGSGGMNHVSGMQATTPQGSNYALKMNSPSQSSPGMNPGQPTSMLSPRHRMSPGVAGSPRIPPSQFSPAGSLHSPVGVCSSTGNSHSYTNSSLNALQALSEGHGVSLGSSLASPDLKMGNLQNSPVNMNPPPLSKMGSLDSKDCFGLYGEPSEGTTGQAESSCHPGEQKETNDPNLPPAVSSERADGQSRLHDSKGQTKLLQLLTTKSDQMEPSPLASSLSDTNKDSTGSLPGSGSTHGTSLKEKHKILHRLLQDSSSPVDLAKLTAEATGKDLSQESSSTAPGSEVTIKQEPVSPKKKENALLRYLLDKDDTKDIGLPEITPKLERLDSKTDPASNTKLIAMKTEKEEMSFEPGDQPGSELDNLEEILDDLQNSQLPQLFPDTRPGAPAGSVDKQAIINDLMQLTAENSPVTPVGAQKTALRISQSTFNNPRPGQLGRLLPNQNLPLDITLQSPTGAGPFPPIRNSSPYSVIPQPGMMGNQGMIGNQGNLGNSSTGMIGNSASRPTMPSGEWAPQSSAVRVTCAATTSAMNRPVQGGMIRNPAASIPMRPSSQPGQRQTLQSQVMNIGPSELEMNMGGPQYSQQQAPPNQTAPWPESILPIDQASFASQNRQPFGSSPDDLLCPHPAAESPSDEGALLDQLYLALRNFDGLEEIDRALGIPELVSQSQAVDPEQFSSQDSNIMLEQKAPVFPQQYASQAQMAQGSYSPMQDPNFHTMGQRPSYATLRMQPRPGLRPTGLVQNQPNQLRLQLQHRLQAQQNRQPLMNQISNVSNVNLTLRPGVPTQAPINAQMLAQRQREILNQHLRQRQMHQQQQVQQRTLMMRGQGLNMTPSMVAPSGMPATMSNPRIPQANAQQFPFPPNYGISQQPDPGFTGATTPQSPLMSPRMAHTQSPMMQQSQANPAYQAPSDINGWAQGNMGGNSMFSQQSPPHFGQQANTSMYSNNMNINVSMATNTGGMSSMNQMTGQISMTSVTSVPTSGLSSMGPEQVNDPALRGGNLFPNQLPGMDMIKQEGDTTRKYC

This is a selection; strong and weak results do not stand in their true shares. Activity calls are given as the source filed them.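 Rule for the calls: active = mean inhibition above 46.5%, the solvent-only control mean plus 3 SD; inactive = the rest.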
What follows are compounds tested against Nuclear receptor coactivator 2 (Homo sapiens) (UniProt Q15596) (assay: SRC2 coactivator transcriptional activity inhibitors, confirmation, cell-based, luminescence, HEK293, triplicate (AID 652008;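 note: 0% = DMSO-treated cells and 100% = Gossypol at 36 µM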)). Details: HEK293 GAL4-SRC2 luciferase reporter, at 8.9 µM, hits give high values.
For `C[N+]1=C2C=CC=CC=C2SC12C([N+](=O)[O-])=CC([N+](=O)[O-])=C[C-]2[N+](=O)[O-]` (stereo unspecified), the inhibition was active: 99%.

Source: PubChem BioAssay AID652008 (The Scripps Research Institute Molecular Screening Center, 2013)
